{"source": "paper PMC4696496", "molecular_target": "polymerised, Taxol-stabilised microtubules of bovine brain tubulin (bovine) (UniProt Q6B856)", "test": "co-sedimentation; polymerised, Taxol-stabilised bovine brain tubulin (~5 µg) incubated with His6-tagged WT or mutant fascin (1:1 ratio) in GTB (50 mM PIPES pH 6.8, 1 mM EGTA, 1 mM MgCl2) for 30 min at 25°C; 20,000 g for 30 min at 25°C; supernatant and pellet on SDS-PAGE, silver staining, densitometry", "data": [{"substance": "His6-tagged wild-type human fascin (from UniProt Q16658 1-493) (natural protein)", "values": [{"measurement": "percent of fascin in the pellet", "result": 25, "unit": "%"}]}]}
